{"sequences": {"note": "Amino acid sequences for entries named in this document (tags omitted). A change or cut given only in a name is not applied to a line headed by its entry.", "UniProt P41144": "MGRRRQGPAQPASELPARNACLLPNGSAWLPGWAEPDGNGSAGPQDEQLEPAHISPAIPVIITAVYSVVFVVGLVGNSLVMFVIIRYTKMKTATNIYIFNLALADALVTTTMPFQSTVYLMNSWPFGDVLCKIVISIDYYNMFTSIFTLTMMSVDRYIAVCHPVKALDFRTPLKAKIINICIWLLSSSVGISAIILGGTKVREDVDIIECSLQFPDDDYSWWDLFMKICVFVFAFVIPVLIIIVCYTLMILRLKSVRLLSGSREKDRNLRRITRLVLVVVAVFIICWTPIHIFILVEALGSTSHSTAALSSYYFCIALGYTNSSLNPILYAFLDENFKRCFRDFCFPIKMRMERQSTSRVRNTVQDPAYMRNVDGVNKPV"}, "source": "ChEMBL document CHEMBL3632621", "about": "“Conformationally restricted κ-opioid receptor agonists: Synthesis and pharmacological evaluation of diastereoisomeric and enantiomeric decahydroquinoxalines” (Bioorg Med Chem Lett, 2015)", "biological_target": "Kappa-type opioid receptor (Cavia porcellus, UniProt P41144)", "data": [{"molecule": "CN(C(=O)Cc1ccc(Cl)c(Cl)c1)[C@H]1CCCC[C@@H]1N1CCCC1", "values": [{"measurement": "Ki", "value": 0.34, "unit": "nM"}]}]}
